This note sets out measurements from ChEMBL document CHEMBL4425163, “Structure elucidation of anti-methicillin resistant Staphylococcus aureus (MRSA) flavonoids from balsam poplar buds” (Bioorg Med Chem, 2016).

The test system of assay [1] is Staphylococcus aureus. The following applies: isolate 4.
Assay [2] concerns Staphylococcus aureus. The following applies: isolate 3.

By MIC is commonly meant the smallest concentration in the dilution series that meets the test's criterion for growth inhibition.

As to GENTAMICIN, the MIC in the assay on Staphylococcus aureus [1] and with Staphylococcus aureus [2] was 0.1 µM each time.
